{
  "source": "patent US6576670B1",
  "about": "“Use of a 5HT2A and 5HT2A/C receptor antagonist for treating snoring and high resistance syndrome of upper anatomical airways” (Sanofi—Synthelabo, priority 1998, dated 2003)",
  "origin": "cited, not measured here",
  "key": {"5HT2 receptors": {"test_system": "5HT2 receptors", "details": "administered systemically; English bulldog; cited from earlier work"}, "5HT2 receptor": {"test_system": "5HT2 receptor", "details": "rats; cited from earlier work"}},
  "data": [
    {"smiles": "CC[C@@H](CO)NC(=O)[C@@H]1C=C2c3cccc4c3c(cn4C)C[C@H]2N(C)C1", "note": "[methysergide]", "values": [
      {"measurement": "activity of the diaphragm", "setting": "5HT2 receptors", "value": "slight reduction"},
      {"measurement": "activity of the dilatory muscle of the upper respiratory tracts", "setting": "5HT2 receptors", "value": "marked reduction"},
      {"measurement": "increase in pulmonary resistance induced by 5-HT", "setting": "5HT2 receptor", "value": "inhibit"}
    ]}
  ]
}
